## Antibody variant affinities, Ab-14 light chain, assay B

Target peptide (SARS-CoV-2 spike, HR2 region): PDVDLGDISGINAS

Parent: Ab-14, a human scFv built as VH, the linker GGGGSGGGGSGGGGS, VL. Only the CDRs of the light chain vary.
VH: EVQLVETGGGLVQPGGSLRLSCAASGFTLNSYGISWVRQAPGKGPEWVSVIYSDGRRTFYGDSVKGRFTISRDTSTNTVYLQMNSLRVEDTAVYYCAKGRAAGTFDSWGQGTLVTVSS
VL: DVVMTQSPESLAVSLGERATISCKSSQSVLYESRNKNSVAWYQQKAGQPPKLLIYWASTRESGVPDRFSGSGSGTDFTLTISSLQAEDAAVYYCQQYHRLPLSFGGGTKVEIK

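The starting antibody came from a phage panning campaign against this peptide. The variants were designed computationally from a first round of random CDR variants and then made and measured. Group labels follow the data file (En: ensemble of fine-tuned language models; GP: Gaussian process model; HC: hill climbing; Gen: genetic algorithm; Gibbs: Gibbs sampling; a sequence that several methods proposed may carry one label only). Affinity was read by AlphaSeq, a pooled yeast mating assay with surface-displayed partners. Binding brings cells together so that they mate, and sequencing counts the barcode pairs among the diploids. Read counts were normalised to the haploid input and turned into Kd by a linear fit to BCL2-family pairs of known affinity, for each replicate. Each pool was mated in six replicate cultures.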

Variants are written as CDR1, CDR2 and CDR3 of the light chain (limits as in the source). Parent: KSSQSVLYESRNKNSVA, WASTRES, QQYHRLPLS.
This list holds designs with more than six substitutions.
Kd is apparent (estimated from mating counts) and averaged on the log scale over replicates with a signal. Smaller is tighter.
"nd" marks a missing value. The strain was present, yet no cells mated with the target were sequenced in any replicate, which points to weak or no binding.
The parent sequence was in this pool as ten entries: three were never detected, three once, and four in most replicates, with averages from 2.2 nM to 240 nM.
The authors' rule: three or more of the six replicates give a measured affinity, fewer mean a poor binder.
Values of this round are not directly comparable with the first-round values of the same sequences.
Nonspecific signal, from three strains lacking the peptide, appeared in 4% of pairings of all light chain designs, centred on 430 nM (5% of these signals below 38 nM); values are not corrected for it.

Variant DVHALMNHSSDLMQNIA | DESCRDA | QQYERLPLS [En_Gibbs] showed 59 nM (6 of 6 replicates).
Variant KISQNMGETQRNKNSVA | EVSLVPD | QQYWRLPLS [En_HC] showed 2.0 nM (6 of 6 replicates).
Variant ELQWQQYGENAMEAAIA | NEGTRHQ | QQYSRLPLT [En_Gibbs] showed 6.5 nM (6 of 6 replicates).
Variant KITQMVNFESTHINAVA | QMSTREE | QQYFRLPLS [En_HC] showed 11 nM (6 of 6 replicates).
Variant KLSQDVCYGDRMKNSVA | NASTREQ | QQYHRLPLS [GP_Gibbs] showed 1.3 nM (6 of 6 replicates).
Variant TLSQMWGMESRNKNNVA | QESTREK | QQYFRLPIS [En_HC] showed 2.7 nM (6 of 6 replicates).
Variant MITAAMNAYGGSRSNVA | DKEISVN | QQYHHLPLS [En_Gibbs] showed 8.1 nM (6 of 6 replicates).
Variant KLSWDDMSHFNTRSAVA | DMTMRAW | QQYNRLPLD [En_Gibbs] showed 6.7 nM (6 of 6 replicates).
Variant KVSGFMRGLMERKDSIA | DNETRNS | QQYDRLPLS [En_Gen] showed 42 nM (6 of 6 replicates).
Variant MISQLYNMGSFAINSVA | QASERNT | QQYDRLPLT [En_Gen] showed 200 nM (6 of 6 replicates).
Variant IVSQLMLWGSHAKNSIA | EAVTRLN | QQYDRLPLF [En_Gen] showed 40 nM (6 of 6 replicates).
Variant NLTTGYRQGALNTDSVA | HGNMRCA | QMYYRLPLS [En_Gibbs] showed 3.3 nM (6 of 6 replicates).
Variant TLSQLDDMTSRNVNSVA | DLTTRGN | QQYHRLPLS [En_HC] showed 2.3 nM (6 of 6 replicates).
Variant HMSMLTLGGLKERNSVA | QMTTREN | QQYDRLPLA [En_Gen] showed 15 nM (6 of 6 replicates).
Variant MLSEVLHMLGVQQNSIA | DLVLRAN | QQYHRLPLM [En_Gen] showed nd (0 of 6 replicates).
Variant MLSQMTGLGMKAKNSVA | QASMRFN | QQYHRLPLI [En_Gen] showed 23 nM (1 of 6 replicates).
Variant HISQSVGMTLRNKNSVA | ENSTRED | QQYDRLPLS [En_HC] showed 120 nM (6 of 6 replicates).
Variant HLGGLMTWESHAKNSVA | QSNTRAE | QQYHRLPLS [En_HC] showed 1.3 nM (6 of 6 replicates).
Variant HISPMFMVESRLKNSVA | QTSTRES | QQYDRLPLS [En_HC] showed 1.7 nM (6 of 6 replicates).
Variant KLVGVSDNDRNPSHNIA | DVSMVDN | QQYHRLPLD [En_Gibbs] showed 34 nM (6 of 6 replicates).
Variant TISQSAHMESHQKNNVA | DLNLRGS | QQYDRLPLS [En_HC] showed 1.6 nM (6 of 6 replicates).
Variant TITNFMGNLSQNRNSVA | DTSTSGE | QSYDRLPLS [En_Gen] showed 5.4 µM (1 of 6 replicates).
Variant KLQSLWLYESRNKNNVA | SASTRYS | QQYHRLPLS [GP_Gibbs] showed 970 pM (6 of 6 replicates).
Variant KLWAYFQGLESKMQNVA | DGSYRST | QQYDRLPLS [En_Gibbs] showed 14 nM (6 of 6 replicates).
Variant MFSQGVMVGWLTRNSVA | NSSTREK | QQYDRLPLS [En_HC] showed 530 pM (6 of 6 replicates).
Variant NMQMQQDRMQDAKQNIA | GVDMREE | QQYFRLPFL [En_Gibbs] showed 1.3 nM (6 of 6 replicates).
Variant KLMNSMLYESRNVNNVA | QASQREL | QQYHRLPLS [GP_Gibbs] showed 740 pM (6 of 6 replicates).
Variant KSGQQFLQEERNWNSVA | DASLRES | QQYHRLPLS [GP_Gibbs] showed 4.1 nM (6 of 6 replicates).
Variant LLSGSMQYESRNKNSVA | DASTRES | QAYHRLPLS [GP_Gibbs] showed 2.2 nM (6 of 6 replicates).
Variant MISQLMNMGQFAINSVA | QANERSN | QQYDRLPLM [En_Gen] showed 62 nM (3 of 6 replicates).
Variant KLSQLGLYGQRNKMSVA | DASTRED | QQYHRLPLS [GP_Gibbs] showed 760 pM (6 of 6 replicates).
Variant KLRQMTGTEGYFKNSVA | QASTREN | QSYHRLPLS [En_HC] showed 34 nM (4 of 6 replicates).
Variant NISINQADEYKMRNNIA | NTSWKAI | QQYFHLPLM [En_Gibbs] showed 36 nM (6 of 6 replicates).
Variant MLSEVLHMLGVAKNSIA | DLVLRAN | QQYHRLPLS [En_Gen] showed 31 nM (6 of 6 replicates).
Variant KLYQSMGYLSRNKSSIA | DMSRREN | QQYHRLPLS [En_HC] showed 8.1 nM (6 of 6 replicates).
Variant KLSAMTYRESMHENNVA | DLRARVE | QQYHRLPLS [En_HC] showed 1.2 nM (6 of 6 replicates).
Variant MLSQMTGLGMKASNSVA | QASMRFN | QQYHRLPLI [En_Gen] showed 31 nM (6 of 6 replicates).
Variant GMSDSMQETIADANHIA | DGEARDV | QQYARLPLI [En_Gibbs] showed 3.9 nM (6 of 6 replicates).
Variant AVDFSHLYESRNKNSVA | NASTREQ | QQYHRLPLS [GP_Gibbs] showed 420 pM (6 of 6 replicates).
Variant MVTQMAMSGMTNKRSVA | NASTRED | QQYHRLPLI [En_Gen] showed 3.0 nM (6 of 6 replicates).
Variant NLAMAYEQGILIKNNIA | SSNLREN | QQYEKLPLI [En_Gibbs] showed 2.2 nM (6 of 6 replicates).
Variant KLPQSVPYEERCFNSVA | HASQRES | QQYHRLPLS [GP_Gibbs] showed 8.5 nM (6 of 6 replicates).
Variant KIVGTLNQLMHKKNNVA | DLVMREN | QQYFRLPLS [En_Gen] showed 35 nM (6 of 6 replicates).
Variant KLMWSDQYWSRNKNSVA | GASERES | QQYHRLPLS [GP_Gibbs] showed 11 nM (6 of 6 replicates).
Variant TISQMTSWMSNKKNNVA | EVSLREE | QQYDRLPLS [En_Gen] showed 5.2 nM (6 of 6 replicates).
Variant ILMQVYKEPGAAVNNIA | DGAIRLQ | QQYHRLPLV [En_Gibbs] showed 6.5 nM (4 of 6 replicates).
Variant HMSMLTLQGMRHTNSVA | QMTTREN | QQYDRLPLS [En_Gen] showed 25 nM (6 of 6 replicates).
Variant KIGLTLNTLMHQKNNVA | DLVTREN | QQYFRLPLS [En_Gen] showed 36 nM (4 of 6 replicates).
Variant HLNGEWNHGANRDNNIA | EAQLVAA | QDYFRLPII [En_Gibbs] showed 34 nM (6 of 6 replicates).

Data: MIT Lincoln Laboratory AlphaSeq set, Li et al. 2023, doi:10.1038/s41467-023-39022-2, as distributed in FLAb.